Source: published antibiotic growth screens (doi:10.1038/s41589-023-01349-8)
Some of the results follow.

These compounds were tested on A. baumannii ATCC 17978 (assay: relative growth (fraction of control); higher = less inhibition). Details: 50 µM.
Compound `Cn1cnc(S(=O)(=O)N2C[C@H](O)COC[C@@H]3O[C@@H](CC(=O)NCc4cc(F)cc(F)c4)CC[C@H]32)c1` has a relative growth of 1.
`C=C(O)C(=O)OCC` showed a relative growth of 0.934.
`O=c1[nH]c(=O)n([C@H]2C[C@H](O)C(CO)O2)cc1I` (stereo not given in full) was tested, and the relative growth was 1.02.
In the case of `C[C@@H](NC(=O)COc1ccccc1)C(=O)O`, the relative growth is reported as 1.
Compound `NCC[C@H]1CC[C@H](NC(=O)C2CC2)[C@H](CO)O1` has a relative growth of 1.05.
Work on `C[C@]12CC[C@@H]3c4ccc(OC(=O)c5ccccc5)cc4CC[C@H]3[C@@H]1CC[C@@H]2O` yielded a relative growth of 1.08.
`COc1ccc(S(=O)(=O)N2C[C@H](O)COC[C@H]3O[C@@H](CC(=O)NCCN4CCCCC4)CC[C@@H]32)cc1` showed a relative growth of 1.16.
`COCCCC/C(=N\OCCN)c1ccc(C(F)(F)F)cc1.O=C(O)/C=C\C(=O)O` showed a relative growth of 1.09.
Work on `O=C(NCC(F)(F)F)[C@@H]1c2ccccc2C(=O)N(Cc2cc(F)cc(C(F)(F)F)c2)[C@H]1c1ccc(CO)cc1` yielded a relative growth of 1.17.
`CCc1nnc(SCC(=O)O)n1N` showed a relative growth of 1.14.
`CN1CCN(C(c2ccccc2)c2ccccc2)CC1` was tested, and the relative growth was 0.903.
`C[C@H](CO)N1C[C@H](C)[C@@H](CN(C)C(=O)C2CCC2)Oc2cc(-c3ccc(C(=O)N(C)C)cc3)ccc2S1(=O)=O` was tested, and the relative growth was 1.06.
`O=C(C[C@H]1CC[C@H]2[C@@H](COC[C@H](O)CN2C(=O)Nc2ccc3c(c2)OCO3)O1)N1CCN(c2ccccc2)CC1` was tested, and the relative growth was 1.
`O=C1NC(=S)N/C1=C\c1ccco1` gave a relative growth of 0.939.
In the case of `CC(=O)O[C@@H]1CC2C(C)(C)C=CC[C@]2(C)C2CC[C@@]3(C)C(c4ccoc4)OC(=O)[C@H]4O[C@]43[C@@]21C` (stereo not given in full), the relative growth is reported as 0.982.
`CC1(C)[C@@H](O[C@@H]2O[C@H](C(=O)O)[C@@H](O)[C@H](O)[C@H]2O[C@@H]2O[C@H](C(=O)O)[C@@H](O)[C@H](O)[C@H]2O)CC[C@]2(C)[C@H]3C(=O)C=C4C5C[C@@](C)(C(=O)O)CC[C@]5(C)CC[C@@]4(C)[C@]3(C)CC[C@@H]12` (stereo not given in full) showed a relative growth of 1.01.
`CCCNC(C)(C)COC(=O)c1ccccc1.Cl` gave a relative growth of 1.08.
Work on `OCCN(CCO)c1nc(N2CCCCC2)c2nc(N(CCO)CCO)nc(N3CCCCC3)c2n1` yielded a relative growth of 1.14.
In the case of `CO[C@H]1CN(C)C(=O)c2cc(NC(=O)Nc3ccccc3F)ccc2OC[C@H](C)N(Cc2ccccc2C(=O)O)C[C@H]1C`, the relative growth is reported as 1.05.
For `O=C(Nc1ccc(-c2ccccc2)cc1)[C@H]1C[C@@H]1c1ccccc1`, the relative growth was 0.867.
In the case of `CCCCC(=O)c1ccc(O)cc1`, the relative growth is reported as 0.808.
Compound `COCCCOc1cc(C[C@@H](C[C@H](N)[C@@H](O)C[C@H](C(=O)NCC(C)(C)C(N)=O)C(C)C)C(C)C)ccc1OC.O=C(O)/C=C/C(=O)O` has a relative growth of 0.871.
In the case of `COCc1n[nH]c(C)c1C(=O)O`, the relative growth is reported as 1.21.
Compound `CC(C)NC(=O)N[C@H]1C=C[C@@H](CC(=O)NCCCN(C)C)O[C@@H]1CO` has a relative growth of 1.08.
With `O=S(=O)(NCC[C@@H]1CC[C@H](NS(=O)(=O)c2cccc(Cl)c2)[C@@H](CO)O1)c1cccc(F)c1` the relative growth was 1.1.
In the case of `O=C(O)c1ccccc1C(=O)Nc1ccc(S(=O)(=O)Nc2nccs2)cc1`, the relative growth is reported as 0.982.
`CN1C(=O)c2cc(NC(=O)c3cscn3)ccc2OC[C@@H]2O[C@H](CC(=O)N3CCOCC3)CC[C@@H]21` showed a relative growth of 1.04.
`Cc1cc(C(=O)O)c(=O)[nH]c1C` was tested, and the relative growth was 1.1.
For `C#C[C@]1(O)CCC2C3CCC4=C(CCC(=O)C4)C3CC[C@@]21C` (stereo not given in full), the relative growth was 1.04.
`C[C@@H]1CC2C3CCC4=CC(=O)C=C[C@]4(C)[C@@]3(Cl)[C@@H](O)C[C@]2(C)[C@@]1(OC(=O)c1ccco1)C(=O)CCl` (stereo not given in full) showed a relative growth of 1.16.
`Nc1ccc(C(=O)[O-])cc1.[K+]` gave a relative growth of 1.2.
`CCCNC(=O)Nc1ccc2c(c1)OC[C@H](C)N(C(=O)C1CCOCC1)C[C@H](C)[C@@H](OC)CN(C)C2=O` was tested, and the relative growth was 1.24.
`Fc1cccc2c(Cl)ccnc12` gave a relative growth of 0.841.
Work on `CC1CC(OC(=O)c2ccccc2O)CC(C)(C)C1` (stereo not given) yielded a relative growth of 1.22.
With `COc1ccccc1NCC(=O)NN` the relative growth was 0.988.
For `C[C@@H]1CN([C@@H](C)CO)S(=O)(=O)c2ccc(Br)cc2O[C@@H]1CN(C)C(=O)c1cnccn1`, the relative growth was 1.12.
`COC(=O)C1=C(C#N)NC(C)=C(C(=O)OC(C)C)C1c1cccc([N+](=O)[O-])c1` (stereo not given) showed a relative growth of 1.21.
`COCC(=O)N(C)C[C@@H]1Oc2cc(C#CCN(C)C)ccc2S(=O)(=O)N([C@H](C)CO)C[C@H]1C` gave a relative growth of 0.99.
`CCCNC(=O)N(C)C[C@H]1Oc2cc(C#Cc3cccc(F)c3)ccc2S(=O)(=O)N([C@H](C)CO)C[C@@H]1C` gave a relative growth of 0.963.
`N[C@H](Cc1c[nH]c2ccccc12)C(=O)O` was tested, and the relative growth was 1.15.
`CN1CCN(C(=O)C[C@@H]2C=C[C@@H](NC(=O)Cc3ccccn3)[C@H](CO)O2)CC1` was tested, and the relative growth was 1.14.
With `CCN1CCN(C(=O)/C=C\C(=O)O)CC1` the relative growth was 1.07.
Compound `C[C@@H]1CN([C@@H](C)CO)S(=O)(=O)c2ccc(C#CC(C)(C)O)cc2O[C@H]1CN(C)Cc1ccccc1` has a relative growth of 0.637.
Compound `CN(CCO)S(=O)(=O)c1cccc(C(=O)O)c1` has a relative growth of 0.902.
With `CC[n+]1oc(-c2ccccc2)cc1C` the relative growth was 0.95.
For `CN1CCN(C(=O)C[C@@H]2CC[C@@H]3[C@H](COC[C@@H](O)CN3C(=O)C3CC3)O2)CC1`, the relative growth was 0.979.
`C/C(=N\N)c1nnn(-c2nonc2N)c1C` was tested, and the relative growth was 1.01.
With `CC(C)[N+](C)(CCOC(=O)C1c2ccccc2Oc2ccccc21)C(C)C.[Br-]` the relative growth was 0.968.
Work on `O=C(CCCN1CCN(c2ccccn2)CC1)c1ccc(F)cc1` yielded a relative growth of 0.876.
`COC(=O)CCCCCCC(=O)N/N=C/[C@H](O)[C@H](O)[C@@H](O)[C@H](C)O` gave a relative growth of 1.12.
Work on `COc1ccc(NC(=O)N2C[C@@H](O)COC[C@H]3O[C@@H](CC(=O)NCc4ccccc4OC)CC[C@@H]32)cc1` yielded a relative growth of 1.09.
Compound `C[N+](C)(C)CCCCNC(=O)[C@H]1C[C@H]2C(=O)N[C@@H](CCCC[N+](C)(C)C)C(=O)N2[C@H]1c1cccc(OCCO)c1` has a relative growth of 1.05.
With `O=C(C[C@@H]1CC[C@H]2[C@@H](COC[C@@H](O)CN2S(=O)(=O)c2cccc(Cl)c2)O1)NCCCN1CCOCC1` the relative growth was 1.07.
Work on `Nc1c2ccccc2nc2ccccc12` yielded a relative growth of 0.255.
Work on `Cc1noc(C)c1NC(=O)N[C@H]1C=C[C@H](CC(=O)N2CCN(C)CC2)O[C@@H]1CO` yielded a relative growth of 1.05.
`CN(C)c1nc(Oc2ccc(=O)n(C)n2)nc(N(C)C)n1` showed a relative growth of 0.935.
Work on `COCCOC(=O)N1C(=O)[C@@]2(c3cc(C#CCC(C(=O)OC)C(=O)OC)ccc31)[C@H](C(=O)N1CCCCCCC1)[C@H]1C(=O)O[C@H](c3ccccc3)[C@H](c3ccccc3)N1[C@@H]2c1ccc(O)cc1` yielded a relative growth of 1.02.
`CC(C)NC(=O)N[C@@H]1C=C[C@H](CC(=O)NCCCN(C)C)O[C@H]1CO` was tested, and the relative growth was 0.98.
Compound `CCCNC(=O)N1C[C@@H](O)COC[C@H]2O[C@H](CC(=O)NCc3ccncn3)CC[C@@H]21` has a relative growth of 0.859.
With `COc1ccc(CCN(C)CCCC(C#N)(c2ccc(OC)c(OC)c2)C(C)C)cc1OC.Cl` (stereo not given) the relative growth was 0.945.
Compound `CCCNC(=O)N1C[C@@H](C)[C@@H](OC)CN(C)C(=O)c2ccc(NS(=O)(=O)CC(F)(F)F)cc2OC[C@H]1C` has a relative growth of 0.957.
`Cc1ccc(=O)n(-c2ccccc2)c1` showed a relative growth of 0.783.
`NCC[C@H]1CC[C@H](NC(=O)NC2CCCCC2)[C@@H](CO)O1` showed a relative growth of 0.924.
Compound `O=S(=O)(Cc1nn[nH]n1)c1ccccc1` has a relative growth of 0.975.
`O=C(C[C@@H]1CC[C@@H]2[C@H](COC[C@H](O)CN2S(=O)(=O)c2ccccc2Cl)O1)NCc1ccccc1Cl` was tested, and the relative growth was 0.94.
`CC1(C)OCC(CO)([N+](=O)[O-])CO1` gave a relative growth of 0.969.
Compound `CSC(=N)Nc1csc(C(F)(F)F)c1-c1ccccc1` has a relative growth of 0.953.
In the case of `CNc1ncnc(Cl)c1N`, the relative growth is reported as 1.03.
Work on `NNC(=O)[C@H]1C[C@H]2C[C@@H]1C[C@@H]2C(=O)NN` yielded a relative growth of 0.984.
`CN[C@H]1CC[C@@H](c2ccc(Cl)c(Cl)c2)c2ccccc21.Cl` gave a relative growth of 0.141.
For `COC(=O)CN1C(=O)CSc2ncccc21`, the relative growth was 1.01.
With `Cc1ccc(C(=O)NCCN2CCNC2=O)cc1` the relative growth was 1.02.
With `O=C(C[C@H]1C=C[C@@H](NS(=O)(=O)c2ccccc2)[C@H](CO)O1)NCc1ccncn1` the relative growth was 1.12.
`Cc1ccc(Nc2c(-c3ccccc3)nc3ccccn23)cc1` was tested, and the relative growth was 0.898.
With `CN(CC(N)=O)S(=O)(=O)c1ccc(F)cc1` the relative growth was 1.01.
`CC(=O)O[C@@H]1[C@@H](O)C[C@@]2(C)[C@@H](CC[C@@H](C)[C@@]23Cc2c(O)cc4c(c2O3)CN([C@@H](CCC(=O)O)C(=O)O)C4=O)C1(C)C` showed a relative growth of 1.15.
With `CCC(=O)Nc1nc2[nH]c(COC)cc(=O)n2n1` the relative growth was 0.937.
`O=C(O)c1cc(S(=O)(=O)NCCN2CCNC2=O)ccc1O` showed a relative growth of 0.985.
With `N#CCC(=O)NN` the relative growth was 0.917.
For `COCC(=O)N1C[C@H](C)[C@@H](OC)CN(C)C(=O)c2ccc(NC(=O)Nc3cccc(F)c3)cc2OC[C@H]1C`, the relative growth was 0.876.
In the case of `C=CC[C@@H](CC(=O)N(CCO)Cc1ccccc1)C(=O)N[C@H](COC(=O)[C@@H](CC=C)Cc1ccc(F)cc1)C(C)(C)C`, the relative growth is reported as 0.757.
Work on `C[C@@H]1O[C@H](Oc2cc(O)c3c(=O)c(O[C@H]4O[C@H](CO)[C@H](O)[C@H](O)[C@@H]4O[C@@H]4O[C@H](C)[C@@H](O)[C@H](O)[C@@H]4O)c(-c4ccc(O)c(O)c4)oc3c2)[C@@H](O)[C@H](O)[C@@H]1O` yielded a relative growth of 0.979.
`CC[C@H]1COCCC(=O)N1` was tested, and the relative growth was 1.09.
`Cc1cc(O)cc(C)c1Cl` showed a relative growth of 0.156.
`C[C@H]1CN([C@@H](C)CO)C(=O)c2cc(C#CCN(C)C)cnc2O[C@H]1CN(C)C(=O)c1ccc2c(c1)OCO2` was tested, and the relative growth was 1.2.
Compound `COC[C@@H]1CN(C(=O)[C@H]2CCCN2C)N1` has a relative growth of 0.898.
`CNC(=O)C[C@H]1CC[C@@H]2[C@H](COC[C@@H](O)CN2C(=O)Nc2ccc3c(c2)OCO3)O1` showed a relative growth of 0.966.
`Cc1ccc(S(=O)(=O)N[C@H]2CC[C@@H](CCNC(=O)CN3CCOCC3)O[C@H]2CO)cc1` gave a relative growth of 0.977.
Compound `Oc1cccc(O)c1` has a relative growth of 1.04.
For `C[C@H]1CN([C@@H](C)CO)S(=O)(=O)c2ccc(C#CC3(O)CCCC3)cc2O[C@H]1CN(C)C(=O)c1cccnc1`, the relative growth was 0.815.
